Experimental data from publication PMC8929578, “In vitro and in silico evaluation of Ononis isoflavonoids as molecules targeting the central nervous system” (PLoS ONE, 2022).
“And” between values parts separate entries of the source, which are not always exact repeats. Equal values may be shown once.

By UniProt entry, the sequences of proteins in these tests, tags left out. Residues count along the entry.
UniProt P21397, whole entry: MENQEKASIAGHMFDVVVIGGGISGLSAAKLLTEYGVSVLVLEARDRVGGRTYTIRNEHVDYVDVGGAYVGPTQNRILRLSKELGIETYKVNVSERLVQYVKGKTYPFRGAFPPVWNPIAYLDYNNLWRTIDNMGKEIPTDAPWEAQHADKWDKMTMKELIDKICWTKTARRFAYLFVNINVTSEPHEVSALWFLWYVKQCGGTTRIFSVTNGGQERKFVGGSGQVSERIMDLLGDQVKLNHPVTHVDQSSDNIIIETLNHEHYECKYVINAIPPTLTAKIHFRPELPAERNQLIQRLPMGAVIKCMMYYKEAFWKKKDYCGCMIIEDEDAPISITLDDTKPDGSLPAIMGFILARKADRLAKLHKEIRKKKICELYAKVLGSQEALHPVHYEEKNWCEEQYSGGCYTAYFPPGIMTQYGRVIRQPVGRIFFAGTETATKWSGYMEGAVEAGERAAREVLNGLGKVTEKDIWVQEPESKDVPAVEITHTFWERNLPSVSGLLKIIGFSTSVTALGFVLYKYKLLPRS
UniProt P27338, 2-520: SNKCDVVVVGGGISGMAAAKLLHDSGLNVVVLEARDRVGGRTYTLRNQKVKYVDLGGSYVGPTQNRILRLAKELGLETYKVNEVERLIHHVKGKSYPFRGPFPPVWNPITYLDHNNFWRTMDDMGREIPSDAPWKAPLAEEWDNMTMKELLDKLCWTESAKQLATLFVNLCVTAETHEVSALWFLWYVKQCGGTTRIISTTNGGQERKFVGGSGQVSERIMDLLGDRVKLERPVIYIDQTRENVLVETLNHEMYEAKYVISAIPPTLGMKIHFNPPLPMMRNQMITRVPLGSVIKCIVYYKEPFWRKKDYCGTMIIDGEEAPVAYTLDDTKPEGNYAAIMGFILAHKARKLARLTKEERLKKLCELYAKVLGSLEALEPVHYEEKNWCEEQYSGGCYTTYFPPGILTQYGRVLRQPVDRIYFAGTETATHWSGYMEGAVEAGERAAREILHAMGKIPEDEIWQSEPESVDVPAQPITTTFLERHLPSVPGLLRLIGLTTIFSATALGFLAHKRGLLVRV

Tests used:
MAO-B vs MAO-A = test: Selectivity index of ChEMBl reference structures (MAO-A and MAO-B IC50); assay type: biochemical, human; conditions: for Selectivity: selectivity index calculated from ChEMBl IC50 values of MAO-A and MAO-B
Monoamine oxidase A [1] = target: T1, Monoamine oxidase A (Homo sapiens, UniProt P21397); conditions: log of IC50 in nM
Monoamine oxidase B [2] = target: T2, Monoamine oxidase B (Homo sapiens, UniProt P27338); conditions: read-out: IC50 values (MAO-B); cited from earlier work
Monoamine oxidase B [3] = target: T2, Monoamine oxidase B; conditions: log10 of the MAO-B IC50 in nM, sheet MAO B
Monoamine oxidase A [4] = target: T1, Monoamine oxidase A; conditions: human enzyme, ref ChEMBl database, cited from earlier work

NNCCc1ccccc1 [CHEMBL1089, PHENELZINE]
Selectivity index (MAO-B vs MAO-A; MAO-A IC50 / MAO-B IC50 of ChEMBL reference structures): 1.664

COc1ccc2c(c1)-c1nnc(-c3cccc(C(F)(F)F)c3)cc1C2=O [CHEMBL209413]
log IC50, MAO A (Monoamine oxidase A [1]): -1

COc1ccc(-c2cc(=O)c3c(O)cc(O)cc3o2)cc1 [CHEMBL243664, Acacetin]
IC50 (Monoamine oxidase B [2]): 49 nM

O=c1c(O)c(-c2ccccc2)oc2cc(O)cc(O)c12 [CHEMBL309490, Galangin]
Selectivity (MAO-B vs MAO-A): 0.0356

O=C(O)c1coc2ccccc2c1=O [CHEMBL315361]
log IC50 (Monoamine oxidase B [3]): -1.319

Cc1cc2c(nn1)-c1cc(OCCCC(F)(F)F)ccc1C2=O [CHEMBL348961]
log IC50 (Monoamine oxidase B [3]): -1.854

O=C1/C(=C/c2ccc(O)cc2)Oc2cc(O)ccc21 [CHEMBL426110]
Selectivity (MAO-B vs MAO-A): 0.1061 and 0.11

COc1cc2c3c(nccc3c1)-c1ccccc1C2=O [CHEMBL1651055]
log IC50, MAO A (Monoamine oxidase A [1]): -0.08092

CN(C)c1ccc(/C=C2\Oc3cc(O)ccc3C2=O)cc1 [CHEMBL1946828]
Selectivity (MAO-B vs MAO-A): 4.045

O=C1CC(O)Oc2ccc(OCc3cccc(Br)c3)cc21 (stereo not shown) [CHEMBL2062882]
Selectivity (MAO-B vs MAO-A): 268.421

CN1N=C(c2ccc(O)cc2O)CC1c1ccc(F)cc1 (stereo not shown) [CHEMBL2417749]
Selectivity (MAO-B vs MAO-A): 1.653

O=C(Nc1ccc(Cl)c(Cl)c1)c1ccc2[nH]ccc2c1 [CHEMBL3319268]
log IC50 (Monoamine oxidase B [3]): -0.644

Cn1ncc2cc(C(=O)Nc3ccc(F)c(Cl)c3)ccc21 [CHEMBL4061639]
log IC50, MAO A (Monoamine oxidase A [1]): -0.18 | pChEMBL Value, MAO A (Monoamine oxidase A [4]): 9.18 | IC50 (Monoamine oxidase A [4]; read-out: Standard Value (IC50), MAO A): 0.661 nM

Cc1cccc(C)c1NC(=S)N/N=C/c1ccc(-n2nc3c(c2C)N(C)S(=O)(=O)c2ccccc2-3)cc1 [CHEMBL4174892]
Selectivity index (IC50 A / IC50 B) (MAO-B vs MAO-A; sheet Selectivity, ratio of MAO-A IC50 to MAO-B IC50): 0.001637
